Patent US20070026402A1, “Genetic marker of response to atypical antipsychotics and antidepressants methods for use thereof” (priority 2003, published 2007)
Where two headings read alike, the source gives them in different places.

Experiments:
schizophrenic patients [1] = settings: A1 subjects
schizophrenic patients [2] = test system: schizophrenic patients

Row | Structure (SMILES) | Number of patients exceeding hyperprolactinemia cut-off levels (Serum prolactin; Clozapine and Olanzapine patients combined) | Hyperprolactinemic patients as share of the sample (Serum prolactin; Clozapine and Olanzapine patients combined, sample of 144) | Prolactin levels compared to Clozapine treatment (Serum prolactin; FIG. 3, P=0.033) | ESRS Parkinsonism, Dystonia and Dyskinesia: Questionnaire and Behavioral scale, mean score (schizophrenic patients [1]; high dose) | ESRS Parkinsonism, Dystonia and Dyskinesia: Questionnaire and Behavioral scale, mean score (schizophrenic patients [1]; low dose) | ESRS Parkinsonism Physician's Examination score, mean (schizophrenic patients [2]; A1 high dose (median dose or above), n=11) | ESRS Parkinsonism Physician's Examination score, mean (schizophrenic patients [2]; A1 low dose (below median dose), n=15) | ESRS Parkinsonism Physician's Examination score, mean (schizophrenic patients [2]; A2 high dose (median dose or above), n=13) | ESRS Parkinsonism Physician's Examination score, mean (schizophrenic patients [2]; A2 low dose (below median dose), n=8) | Patients on this medication in the hyperprolactinemic range (Serum prolactin; 430 mU/l in men, 560 mU/l in women) | Number of patients exceeding hyperprolactinemia cut-off levels (Serum prolactin; 430 mU/l in men, 560 mU/l in women, 49 patients on Risperidone) | Prolactin levels compared to Typical antipsychotics (Serum prolactin; FIG. 3, P=0.004)
1 | Cc1cc2c(s1)Nc1ccccc1N=C2N1CCN(C)CC1 [Olanzapine] | 7 | 5% | significantly higher prolactin levels |  |  |  |  |  |  |  |  | 
2 | Cc1nc2n(c(=O)c1CCN1CCC(c3noc4cc(F)ccc34)CC1)CCCC2 [Risperidone] |  |  |  | 1.27 | 4.07 | 2.18 | 4.53 | 8.54 | 2.63 | 81% | 40 | significantly higher levels of prolactin
